# Laboratory results: PubChem BioAssay AID652257 (The Scripps Research Institute Molecular Screening Center, 2013)
# Chains of the proteins cited; added tags and fusions are not shown.
# UniProt Q99873, whole entry, looked up: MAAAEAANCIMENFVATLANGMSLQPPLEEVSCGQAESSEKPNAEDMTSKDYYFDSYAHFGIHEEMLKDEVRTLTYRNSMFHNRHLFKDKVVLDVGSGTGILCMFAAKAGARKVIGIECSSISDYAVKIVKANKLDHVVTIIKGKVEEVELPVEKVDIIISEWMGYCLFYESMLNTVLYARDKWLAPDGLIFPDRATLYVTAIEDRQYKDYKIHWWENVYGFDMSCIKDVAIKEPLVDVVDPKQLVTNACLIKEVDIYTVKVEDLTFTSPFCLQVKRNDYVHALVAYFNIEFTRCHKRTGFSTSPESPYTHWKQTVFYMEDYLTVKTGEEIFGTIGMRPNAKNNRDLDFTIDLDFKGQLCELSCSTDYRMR
# Only a part is listed here, and it is no random draw. Calls of active or inactive are those of the source.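 How the source made its calls: active means inhibition above about 21% made by adding two undisclosed values (limit read from the data); inactive means the rest.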
# Molecular target: Protein arginine N-methyltransferase 1 (Homo sapiens) (UniProt Q99873)
# Test: PRMT1 methyltransferase inhibitors, primary screen, biochemical, fluorescence polarization (AID 652257)
# Settings: recombinant PRMT1, activity-based probe fluorescence polarization; at 2.79 µM; hits give high values
row,SMILES,inhibition
1,O=C(COc1ccccc1)OC1CN2CCC1CC2 (stereo not drawn),inactive: -1.22%
2,O=C(OC1CN2CCC1CC2)c1cccc([N+](=O)[O-])c1 (stereo not drawn),inactive: 3.07%
3,CCOC(=O)c1ccc(NC(=O)C(C)(CCl)SC)cc1 (stereo not drawn),inactive: -1.7%
4,CCC(C)N(CC(C)C)C(=S)SC(NC(C)=O)C(Cl)(Cl)Cl (stereo not drawn),inactive: -0.18%
5,Cc1c2c(nc3ccccc13)SC(C(Cl)Cl)C2 (stereo not drawn),inactive: -2.23%
6,Cc1cc(=O)[nH]c(N[N+](=O)[O-])n1,inactive: -1.46%
7,O=C(OC1CN2CCC1CC2)C12CC3CC(CC(C3)C1)C2 (stereo not drawn),inactive: -2.37%
8,O=P1(N(CCCl)CCCl)Nc2ccccc2N1,inactive: 5.74%
9,O=P1(N(CCCl)CCCl)OCCCN1CCCl (stereo not drawn),inactive: -0.78%
10,COc1cc(I)ccc1[As](=O)(O)O,inactive: -1.8%
11,COc1ccc2nc(NP(=O)(c3ccccc3)c3ccccc3)sc2c1,inactive: -0.15%
12,O=[N+]([O-])c1cc(Oc2ccc([N+](=O)[O-])cc2C(F)(F)F)cc([N+](=O)[O-])c1,inactive: 0.66%
13,COc1ccc(N/C(=N/P(=O)(N2CCOCC2)N2CCOCC2)N2CCOCC2)cc1,inactive: 16.4%
14,COc1cc(C(=O)NCC2(N3CCOCC3)CCCCC2)ccc1OCC(C)C,inactive: -0.66%
15,O=[N+]([O-])c1ccc(-c2cc([N+](=O)[O-])c(O)c([N+](=O)[O-])c2)cc1,inactive: -2%
16,C[As](=O)(O)c1cccc(C(=O)O)c1,inactive: -2.97%
17,O=[As](O)(c1ccc(O)cc1)c1ccccc1O,inactive: 1.42%
18,Cc1ccc(OP(=O)(Nc2ccc([N+](=O)[O-])cn2)Oc2ccc(C)cc2)cc1,inactive: -1.62%
19,[N-]=[N+]=NC1CCCCC1NC(=O)c1cc([N+](=O)[O-])cc([N+](=O)[O-])c1 (stereo not drawn),inactive: -1%
20,Cc1ccc2nc3c(c(C)c2c1)CC(C(Cl)Cl)S3 (stereo not drawn),inactive: 5.14%
21,ClCCSc1nnc(-c2cccnc2)o1,inactive: 1.34%
22,CC(C)c1ccc(OP(=O)(Nc2ccccn2)Oc2ccccc2F)cc1 (stereo not drawn),inactive: 1.66%
23,COC(=O)C1(C)COP(=O)(N2CCCCCC2)OC1 (stereo not drawn),inactive: 2.42%
24,CCN(CC)C(=S)SC(NC=O)C(Cl)(Cl)Cl (stereo not drawn),inactive: 2.71%
25,O=C(OC1CN2CCC1CC2)c1cccc2[nH]cnc12 (stereo not drawn),inactive: 2%
26,CC(C)NC(=O)NP(=O)(Oc1ccccc1)Oc1ccccc1,inactive: 0.64%
27,O=P(Nc1nccs1)(Oc1ccccc1)Oc1ccccc1,inactive: -2.84%
28,CCOP1(=S)c2c(C)nn(CCC#N)c2N=C(c2ccccc2F)N1C (stereo not drawn),inactive: 2.16%
